# Reference: patent US20230339900A1, “CASEIN KINASE 1 DELTA MODULATORS” (Janssen Pharmaceutica NV, priority 2020, published 2023)
# By UniProt entry, the sequences of proteins in these tests, tags left out.
# UniProt P48730, whole entry: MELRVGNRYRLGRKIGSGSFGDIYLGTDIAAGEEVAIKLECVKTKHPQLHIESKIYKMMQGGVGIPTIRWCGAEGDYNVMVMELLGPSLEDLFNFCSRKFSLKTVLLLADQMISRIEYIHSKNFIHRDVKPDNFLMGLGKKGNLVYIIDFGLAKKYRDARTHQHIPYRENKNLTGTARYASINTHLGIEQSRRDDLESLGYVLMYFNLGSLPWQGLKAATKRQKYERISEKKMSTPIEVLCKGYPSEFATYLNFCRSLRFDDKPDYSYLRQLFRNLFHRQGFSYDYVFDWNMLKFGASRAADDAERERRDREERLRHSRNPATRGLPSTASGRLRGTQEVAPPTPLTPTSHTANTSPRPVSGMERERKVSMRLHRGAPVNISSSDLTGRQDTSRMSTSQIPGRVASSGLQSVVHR
# Legend:
# [1] = biological target: human CSNK1D tagged with nanoluciferase (Homo sapiens (Human), UniProt P48730); assay: Whole Cell nBRET CSNK1D Binding Assay; settings: read-out: CSNK1D BRET IC50; living CHO cells stably expressing human CSNK1D-nanoluciferase; NanoBret tracer 130 nM; 2 hours 37° C.
# [2] = biological target: human recombinant GST cleaved CSNK1D (Homo sapiens (Human), UniProt P48730); assay: Purified enzyme assay (ADP-Glo Kinase Assay); assay type: biochemical; settings: read-out: ADP-Glo CSNK1D AC50; 2 nM CSNK1D, peptide substrate 150 μM, ATP 20 μM, 45 minutes room temperature
smiles,measurement,setting,value
Cn1cc(-c2ccnc3ccncc23)c(-c2ccc(F)cn2)n1,IC50,[1],4.39 µM
same,AC50,[2],0.128 µM
